AlphaSeq binding of Ab-91 heavy chain variants to a spike HR2 peptide

All variants were tested on one target, the spike HR2 peptide PDVDLGDISGINAS (SARS-CoV-2).

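Phage display of a naive human antibody library on the peptide gave the parent. AAYL51 was designed without a model: most single CDR substitutions and a random sample of double and triple ones. In AlphaSeq, yeast of one mating type display the scFv and yeast of the other type display the target. Pairs that bind mate more often; barcode pairs of the diploids are counted by sequencing. The ratio of observed to expected reads was calibrated, replicate by replicate, on BCL2-family standards whose Kd was known from biolayer interferometry. There are three technical replicates.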

Each scFv is VL, three GGGGS repeats, VH, as in the parent Ab-91, and differs from it in the CDRs of the heavy chain only.
VL: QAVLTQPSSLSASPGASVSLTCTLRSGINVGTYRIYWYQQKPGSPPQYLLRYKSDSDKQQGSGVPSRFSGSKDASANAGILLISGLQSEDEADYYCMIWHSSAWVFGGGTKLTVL
VH: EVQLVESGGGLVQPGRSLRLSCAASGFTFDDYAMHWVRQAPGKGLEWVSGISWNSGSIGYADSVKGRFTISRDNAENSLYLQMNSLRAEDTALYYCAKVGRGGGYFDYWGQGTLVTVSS

Sequences are complete VH domains. Values are log10 of the apparent Kd in nM; lower means stronger binding. Replicates are averaged; those with no signal do not enter the mean. Where no diploid with the target was found in that replicate, the entry reads "n.d.": below detection, most likely a poor binder, though not proof of it. Three control strains display no target. For library AAYL51, 21% of the pairings with them gave a signal, with a median of 4.54 and one signal in twenty below 3.26, so weak values seen in few replicates may be background. For each scFv, signals with the empty controls are counted beside the result, with their mean in brackets. In this assay the parent's reference entry averaged 1.86; its copy inside this library read 0.88.

VH | replicates, log10 nM | mean log10 Kd (nM) | signal with controls
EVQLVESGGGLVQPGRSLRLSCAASGFTFDDYADHWVRQAPGKGLEWVSGISWNSGSIGYADLVKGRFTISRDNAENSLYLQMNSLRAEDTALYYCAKVGPGGGYFDYWGQGTLVTVSS | n.d. / 5.29 / n.d. | 5.29 | 0 of 9
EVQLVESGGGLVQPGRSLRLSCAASGFTFDDYAMHWVRQAPGKGLEWVSGIDWNSGSIGYADSVKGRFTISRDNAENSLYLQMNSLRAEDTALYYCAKVGGGGGYFDSWGQGTLVTVSS | 2.77 / 4.15 / n.d. | 3.46 | 2 of 9 (4.93)
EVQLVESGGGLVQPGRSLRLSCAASHFRFDDYAMHWVRQAPGKGLEWVSWISWNSGSIGYADSVKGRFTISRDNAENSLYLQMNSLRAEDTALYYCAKVGRGGGYFDYWGQGTLVTVSS | 3.82 / n.d. / n.d. | 3.82 | 5 of 9 (4.04)
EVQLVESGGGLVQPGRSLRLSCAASGFTFDKYAMHWVRQAPGKGLEWVSGISFNSGSIGYADSVKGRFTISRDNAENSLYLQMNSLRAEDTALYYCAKVGRGFGYFDYWGQGTLVTVSS | 5.01 / n.d. / n.d. | 5.01 | 3 of 9 (5.13)
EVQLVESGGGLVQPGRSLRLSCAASGFTFDDYAKHWVRQAPGKGLEWVSGISWNSGHIGYADSVKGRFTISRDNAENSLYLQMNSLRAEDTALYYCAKVGRGGGFFDYWGQGTLVTVSS | 4.63 / 6.26 / 4.94 | 5.28 | 7 of 9 (5.13)
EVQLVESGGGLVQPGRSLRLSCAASGFTFDDYLMHWVRQAPGKGLEWVSGISWNSGSIGYADSVKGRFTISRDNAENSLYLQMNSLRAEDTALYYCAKWGRGGGPFDYWGQGTLVTVSS | n.d. / 3.96 / n.d. | 3.96 | 4 of 9 (4.49)
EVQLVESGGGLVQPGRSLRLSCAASGFTFDDYACHWVRQAPGKGLEWVSGISWNSGSIGYADSVWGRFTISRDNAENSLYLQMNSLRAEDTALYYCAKVGRGGGPFDYWGQGTLVTVSS | n.d. / n.d. / n.d. | n.d. | 4 of 9 (4.63)
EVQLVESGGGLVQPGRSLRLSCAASGFTFDDYAMHWVRQAPGKGLEWVSGCSWNSGSIGYADCVKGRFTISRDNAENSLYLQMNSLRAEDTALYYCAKVKRGGGYFDYWGQGTLVTVSS | n.d. / 4.00 / n.d. | 4.00 | 2 of 9 (2.03)
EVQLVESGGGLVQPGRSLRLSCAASGFTDDDTEMHWVRQAPGKGLEWVSGISWNSGSIGYADSVKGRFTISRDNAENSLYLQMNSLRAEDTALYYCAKVGRGGGYFDYWGQGTLVTVSS | n.d. / n.d. / 3.44 | 3.44 | 1 of 9 (3.25)
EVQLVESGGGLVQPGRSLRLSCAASKFTFDLYAMHWVRQAPGKGLEWVSGISWNSGSIGYADSVKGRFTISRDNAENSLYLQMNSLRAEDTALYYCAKVGRGGGYFEYWGQGTLVTVSS | 4.06 / 3.56 / 3.12 | 3.58 | 2 of 9 (4.67)
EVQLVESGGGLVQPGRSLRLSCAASGFTFDDYAMHWVRQAPGKGLEWVSGYSWNSGQIGYADSVKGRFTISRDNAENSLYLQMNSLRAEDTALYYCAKVGRGGGNFDYWGQGTLVTVSS | 4.36 / 4.45 / 4.50 | 4.44 | 5 of 9 (4.80)
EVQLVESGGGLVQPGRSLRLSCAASGFTFDDYAMHWVRQAPGKGLEWVSGISWNSGLIGYADSVKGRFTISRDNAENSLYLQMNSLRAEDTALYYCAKVGRGGGYFYYWGQGTLVTVSS | n.d. / n.d. / n.d. | n.d. | 1 of 9 (3.83)
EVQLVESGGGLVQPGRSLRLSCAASGFKFDCYAMHWVRQAPGKGLEWVSGISWNSGSIGYADSVKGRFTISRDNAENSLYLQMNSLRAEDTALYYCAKVGRGWGYFDYWGQGTLVTVSS | 2.44 / 2.16 / 1.97 | 2.19 | 1 of 9 (5.06)
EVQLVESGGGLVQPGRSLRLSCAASGFTFDDYAMHWVRQAPGKGLEWVSGISWGSGSIGYADSVKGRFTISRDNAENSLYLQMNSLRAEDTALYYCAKVGRGVGYFGYWGQGTLVTVSS | n.d. / n.d. / n.d. | n.d. | 1 of 9 (4.51)
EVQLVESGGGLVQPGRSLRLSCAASGFTFQDYAMHWVRQAPGKGLEWVSGISWRSGSIGYADSVIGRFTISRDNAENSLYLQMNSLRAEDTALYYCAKVGRGGGYFDYWGQGTLVTVSS | 4.07 / 4.16 / n.d. | 4.11 | 0 of 9
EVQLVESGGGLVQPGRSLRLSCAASGFTFSDYAMHWVRQAPGKGLEWVSGISWNSGSIGYADSIKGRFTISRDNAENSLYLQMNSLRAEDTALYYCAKVGRGGGYFDYWGQGTLVTVSS | 1.89 / 1.96 / 0.86 | 1.57 | 1 of 9 (4.47)

For reference, 2 entries of the list once more:

VH | replicates, log10 nM | mean log10 Kd (nM) | signal with controls
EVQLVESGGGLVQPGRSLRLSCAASGFTFDDYAMHWVRQAPGKGLEWVSGISWGSGSIGYADSVKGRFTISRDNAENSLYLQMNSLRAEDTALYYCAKVGRGVGYFGYWGQGTLVTVSS | n.d. / n.d. / n.d. | n.d. | 1 of 9 (4.51)
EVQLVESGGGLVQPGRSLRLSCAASGFTFDDYAMHWVRQAPGKGLEWVSGYSWNSGQIGYADSVKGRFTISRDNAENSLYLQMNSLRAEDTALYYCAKVGRGGGNFDYWGQGTLVTVSS | 4.36 / 4.45 / 4.50 | 4.44 | 5 of 9 (4.80)

Reference: Engelhart et al. 2022, doi:10.1038/s41597-022-01779-4. File: FLAb, binding data.